The chains behind the UniProt entries cited, without tags or fusion partners. Residues count along the entry.
UniProt P53634, 25-143 limits assumed: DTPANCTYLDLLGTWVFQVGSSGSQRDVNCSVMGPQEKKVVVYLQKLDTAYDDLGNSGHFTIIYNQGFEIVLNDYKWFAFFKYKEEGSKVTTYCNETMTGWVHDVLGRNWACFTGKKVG
UniProt P53634, 231-394 limits assumed: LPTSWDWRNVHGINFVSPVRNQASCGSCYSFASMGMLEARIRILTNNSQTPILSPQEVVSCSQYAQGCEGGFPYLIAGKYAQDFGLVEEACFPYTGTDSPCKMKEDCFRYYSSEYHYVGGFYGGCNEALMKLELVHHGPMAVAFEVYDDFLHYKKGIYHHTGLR
UniProt P53634, 395-463 limits assumed: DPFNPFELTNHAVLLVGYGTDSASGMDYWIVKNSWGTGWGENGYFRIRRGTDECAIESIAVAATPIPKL

In patent US9440960B2, “Substituted oxetanes and their use as inhibitors of cathepsin C” (Boehringer Ingelheim International GmbH, priority 2014, dated 2016):

Target: recombinant human DPPI (Cathepsin C) (Homo sapiens, UniProt P53634)
Test: Inhibition of Human DPPI (Cathepsin C)
Conditions: read-out: Inhibition of DPPI IC50, substrate Gly-Arg-AMC 50 μM, MES buffer pH 6.0, 30 min at room temperature, fluorescence readout
Excerpt: Inhibition of Human DPPI (Cathepsin C)
Materials: Microtiterplates (Optiplate-384 F) were purchased from PerkinElmer (Prod.No. 10 6007270). The substrate Gly-Arg-AMC was from Biotrend (Prod.-No. 808756 Custom peptide).
Bovine serum albumin (BSA; Prod.No. A3059) and Dithiothreitol (DTT; Prod.No D0632) were from Sigma. TagZyme buffer was from Riedel-de-Haen (Prod.-No. 04269), NaCl was from Merck (Prod.-No. 1.06404.1000) and morpholinoethane sulfonic acid (MES), was from Serva (Prod.-No.
29834). The DPP1 inhibitor Gly-Phe-DMK was purchased from MP Biomedicals 15 (Prod.-No. 03DK00625). The recombinant human DPPI was purchased from Prozymex. […]
Five uL test compound (final concentration 0.1 nM to 100 μM) in aqua bidest 5 (containing 4% DMSO, final DMSO concentration 1%) were mixed with 10 μL of DPPI in MES buffer (final concentration 0.0125 ng/μL) and incubated for 10 min. […] The fluorescence in the wells was determined using a Molecular Devices SpectraMax M5 Fluorescence Reader (Ex 360 nm, Em 460 nm) or an Envision Fluorescence Reader (Ex 355 nm, Em 460 nm).
Each assay microtiter plate contained wells with vehicle controls (1% DMSO in bidest+0.075% 15 BSA) as reference for non-inhibited enzyme activity (100% Ctl; high values) and wells with inhibitor (Gly-Phe-DMK, in bidest+1% DMSO+0.075% BSA, final concentration 1 μM) as controls for background fluorescence (0% Ctl; low values). […]

## N#C[C@H](Cc1ccc(C2CC3CN(C4COC4)CC3C2)cc1F)NC(=O)C12CCC(CC1)CN2 (stereo partly shown)
  IC50: 0.0754 µM
